Measured values published in publication PMC5887109, “Unravelling the Molecular Determinants of Bee Sensitivity to Neonicotinoid Insecticides” (Current Biology, 2018).

The chains behind the UniProt entries cited, without tags or fusion partners.
UniProt A0A7M7GTV9, entry or part of it: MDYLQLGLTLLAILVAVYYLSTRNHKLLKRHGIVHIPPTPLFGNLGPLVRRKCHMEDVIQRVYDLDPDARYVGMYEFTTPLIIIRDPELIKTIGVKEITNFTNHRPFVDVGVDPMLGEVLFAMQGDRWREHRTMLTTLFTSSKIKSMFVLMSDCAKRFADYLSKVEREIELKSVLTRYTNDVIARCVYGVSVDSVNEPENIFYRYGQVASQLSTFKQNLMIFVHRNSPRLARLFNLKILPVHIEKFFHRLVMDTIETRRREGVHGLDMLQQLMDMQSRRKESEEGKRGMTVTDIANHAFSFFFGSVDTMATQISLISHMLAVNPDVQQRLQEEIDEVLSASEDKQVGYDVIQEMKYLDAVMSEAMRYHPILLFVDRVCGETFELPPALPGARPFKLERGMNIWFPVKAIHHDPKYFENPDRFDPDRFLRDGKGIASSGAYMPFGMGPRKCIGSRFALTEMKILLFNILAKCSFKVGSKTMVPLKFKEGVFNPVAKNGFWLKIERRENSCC

How the values were obtained:
CYP9Q1 = CYP9Q1 (Apis mellifera, UniProt A0A7M7GTV9); conditions: at least
Excerpt: (§1) All bee P450 (see Table S3 for accession numbers) and house fly NADPH-dependent cytochrome P450 reductase (CPR) (GenBank accession number Q07994) genes were obtained by gene synthesis (Geneart, CA, USA) and inserted into the pDEST8 expression vector (Invitrogen). Codon optimization of all bee genes was used to optimize expression in lepidopteran cell lines. The PFastbac1 vector with no inserted DNA was used to produce a control virus. The recombinant baculovirus DNA was constructed and transfected into Trichoplusia ni (High five cells, Thermo Fisher) using the Bac-to-Bac baculovirus expression system (Invitrogen) according to the manufacturer’s instructions. The titer of the recombinant virus was determined following protocols of the supplier. High Five cells grown to a density of 2 × 10^6 cells ml^-1 were co-infected with recombinant baculoviruses containing each bee P450 and CPR with a range of MOI (multiplicity of infection) ratios to identify the optimal conditions. […] The protein content of samples was determined using Bradford reagent (Sigma) and bovine serum albumin (BSA) as a reference.
(§2) The total assay volume was 200 μL using three replicates for each data point. […] The assay was stopped by the addition of ice-cold acetonitrile (to 80% final concentration), centrifuged for 10 min at 3000 g and the supernatant subsequently analyzed by tandem mass spectrometry as described previously. […]

CYP9Q2 = molecular target: T1, CYP9Q2 (Apis mellifera, UniProt A0A7M7R6F2); conditions: at least
T1 sequence (A0A7M7R6F2 1-532): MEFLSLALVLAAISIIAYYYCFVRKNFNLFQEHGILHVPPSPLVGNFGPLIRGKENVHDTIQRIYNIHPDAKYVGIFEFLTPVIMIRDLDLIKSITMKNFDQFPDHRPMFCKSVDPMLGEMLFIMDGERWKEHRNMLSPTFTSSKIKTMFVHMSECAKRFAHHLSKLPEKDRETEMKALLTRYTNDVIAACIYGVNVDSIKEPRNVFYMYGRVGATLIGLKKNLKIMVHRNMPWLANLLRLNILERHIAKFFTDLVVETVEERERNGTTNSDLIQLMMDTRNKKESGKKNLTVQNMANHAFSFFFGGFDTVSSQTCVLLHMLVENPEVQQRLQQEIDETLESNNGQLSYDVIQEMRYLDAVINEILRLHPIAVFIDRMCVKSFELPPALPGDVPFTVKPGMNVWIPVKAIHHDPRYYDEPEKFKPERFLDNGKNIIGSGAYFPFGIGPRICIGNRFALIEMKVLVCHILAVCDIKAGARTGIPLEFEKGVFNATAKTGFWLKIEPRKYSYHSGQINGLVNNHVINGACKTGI
T1 sequence (Q07994 1-671 partner): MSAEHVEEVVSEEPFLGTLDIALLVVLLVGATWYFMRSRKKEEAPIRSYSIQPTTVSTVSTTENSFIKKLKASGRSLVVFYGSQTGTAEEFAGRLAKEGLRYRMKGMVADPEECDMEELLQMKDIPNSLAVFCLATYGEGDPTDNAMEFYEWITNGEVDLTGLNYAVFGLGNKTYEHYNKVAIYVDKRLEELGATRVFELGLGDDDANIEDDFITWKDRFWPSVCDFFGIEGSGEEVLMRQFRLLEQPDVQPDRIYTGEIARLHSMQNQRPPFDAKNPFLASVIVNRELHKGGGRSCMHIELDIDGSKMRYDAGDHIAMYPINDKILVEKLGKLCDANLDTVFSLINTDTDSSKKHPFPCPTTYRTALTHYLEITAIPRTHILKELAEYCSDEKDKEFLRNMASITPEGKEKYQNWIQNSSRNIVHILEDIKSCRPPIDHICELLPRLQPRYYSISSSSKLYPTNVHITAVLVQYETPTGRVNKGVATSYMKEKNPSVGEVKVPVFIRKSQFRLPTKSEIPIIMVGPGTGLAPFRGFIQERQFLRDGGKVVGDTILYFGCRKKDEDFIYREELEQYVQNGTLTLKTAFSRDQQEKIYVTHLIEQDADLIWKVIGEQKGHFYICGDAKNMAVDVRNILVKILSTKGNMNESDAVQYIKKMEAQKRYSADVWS
Excerpt: as §1, §2

[1] = test system: transgenic Drosophila expressing honeybee CYP9Q3; assay: Insecticide bioassay of transgenic Drosophila expressing CYP9Q3; format: in vivo, Drosophila melanogaster; conditions: Act5C-GAL4 driven; ratio of LC50 values
Protocol: (§3) Fly lines were made homozygous for the transgene integrations. […] LC50 values were calculated as above.

A. mellifera = assay: Acute contact (topical) insecticide bioassay of honeybees, with or without ABT; conditions: honeybees pretreated with ABT (1-aminobenzotriazole)
Protocol: (§4) Acute contact insecticide assays were performed on female A. mellifera following standard methods OECD 2013 [30]. Bioassays of B. terrestris were based on the OECD guidelines developed for honeybees but with bees assayed in individual Nicot cages. Bees were starved of sucrose solution for up to 2 hr to encourage feeding during the experiment. […] Controls were fed a solution of sucrose containing a concentration of acetone matching that of the highest treatment concentration. After 4-6 hr the syringes were assessed to see if bees had consumed the insecticide-sucrose solution. Those that had not consumed all of the solution were excluded from the experiment. Mortality was assessed 48 hr after feeding and lethal concentrations (LC50 values) were calculated by probit analysis using Genstat version 16 (VSN International). For synergist bioassays, B. terrestris or A. mellifera workers were first treated with 20 μg of piperonyl butoxide or 1 μg of aminobenzotriazole applied to the dorsal thorax. Synergist bioassays included an additional control group treated only with the synergist. 1 hr after synergist application, bees were then treated with the appropriate insecticide dosage as above.

Bombus terrestris = assay: Acute oral insecticide bioassay of bumble bees, with or without PBO; conditions: PBO versus no synergist
Protocol: as §4

[2] = test system: transgenic Drosophila expressing honeybee CYP9Q2; assay: Insecticide bioassay of transgenic Drosophila expressing CYP9Q2; format: in vivo, Drosophila melanogaster; conditions: Act5C-GAL4 driven; ratio of LC50 values
Protocol: as §3

CYP6AS5 = assay: Metabolism by recombinant CYP6AS5/CPR microsomes, LC-MS/MS; conditions: at least
Excerpt: as §1, §2

[3] = test system: transgenic Drosophila expressing B. terrestris CYP9Q4; assay: Insecticide bioassay of transgenic Drosophila expressing CYP9Q4; format: in vivo, Drosophila melanogaster; conditions: Act5C-GAL4 driven; ratio of LC50 values
Protocol: as §3

[4] = test system: transgenic Drosophila expressing honeybee CYP9Q1; assay: Insecticide bioassay of transgenic Drosophila expressing CYP9Q1; format: in vivo, Drosophila melanogaster; conditions: Act5C-GAL4 driven; ratio of LC50 values
Protocol: as §3

[5] = test system: transgenic Drosophila expressing B. terrestris CYP9Q5; assay: Insecticide bioassay of transgenic Drosophila expressing CYP9Q5; format: in vivo, Drosophila melanogaster; conditions: Act5C-GAL4 driven; ratio of LC50 values
Protocol: as §3

[6] = test system: transgenic Drosophila expressing CYP9Q3 in Malpighian tubules and neuronal cells; conditions: Malp-GAL4 driver
Protocol: as §3

For `N#C/N=C1\SCCN1Cc1ccc(Cl)nc1` [thiacloprid], the “activity against thiacloprid, fold lower than that seen for CYP9Q3” value (CYP9Q1) was greater than 10 fold, the “activity against thiacloprid, fold lower than that seen for CYP9Q3” value (CYP9Q2) was greater than 10 fold and the “resistance compared to control flies without the transgene” value [1] was greater than 10 fold. For the same compound, the “fold more sensitive after pretreatment with ABT” value (A. mellifera) was greater than 170 fold, the “Synergism Ratio” value (Bombus terrestris) was 4.2 and the “resistance compared to control flies without the transgene” value [2] was 3.5 fold. For the same compound, the “activity against thiacloprid, fold lower than that seen for CYP9Q3” value (CYP6AS5) was greater than 10 fold, the “resistance compared to control flies without the transgene” value [3] was roughly 5 fold and the “resistance compared to control flies without the transgene” value [4] was “no change in sensitivity”. The “resistance compared to control flies without the transgene” value [5] was “no change in sensitivity” and the “resistance of flies with CYP9Q3 expression directed to Malpighian tubules and neuronal cells” value [6] was “Significant levels of thiacloprid resistance”.
